# Measurements: patent US4605642A, “CRF antagonists” (The Salk Institute for Biological Studies, priority 1984, dated 1986)
# Key:
# spontaneous ACTH release = assay: Spontaneous ACTH release by adrenalectomized rats; type: in vivo, rat; conditions: iv 3 mg/kg BW (2.7 nmole)
# Description: (§1) The synthetic CRF antagonists from Examples I and II were examined for their effects on the secretion of ACTH and β-endorphin in vitro and the synthetic AHC peptide is also examined in vivo. The effectiveness of synthetic CRF antagonists to block the secretion of ACTH and β-endorphin by cultured rat pituitary cells is measured using the procedure as generally set forth in Vale et al., Endocrinology, 91, 562 (1972). In vivo testing is carried out using the general procedure set forth in C. Rivier et al., Science, 218, 377 (1982).
# (§2) The in vivo effect of CRF antagonists is tested on the spontaneous ACTH release by adrenalectomized rats.
# [1] = system: CRF-induced ACTH secretion; assay: CRF-induced ACTH secretion in intact, non-anesthetized rats; type: in vivo, rat
# Description: as §1, §2
smiles,measurement,setting,value
CSCC[C@H](NC(=O)[C@H](CCC(=O)O)NC(=O)[C@H](CC(C)C)NC(=O)[C@H](CCSC)NC(=O)[C@H](CCC(=O)O)NC(=O)[C@H](CCCNC(=N)N)NC(=O)[C@H](CC(C)C)NC(=O)[C@H](CC(C)C)NC(=O)[C@H](Cc1c[nH]cn1)NC(=O)[C@H](Cc1ccccc1)NC(=O)[C@@H](NC(=O)[C@H](CC(C)C)NC(=O)[C@@H](N)CC(=O)O)[C@@H](C)O)C(=O)N[C@@H](C)C(=O)N[C@@H](CCCCN)C(=O)N[C@@H](C)C(=O)N[C@@H](CCC(=O)O)C(=O)N[C@@H](CCC(N)=O)C(=O)N[C@@H](CCC(=O)O)C(=O)N[C@@H](C)C(=O)N[C@@H](CCC(=O)O)C(=O)N[C@@H](CCC(N)=O)C(=O)N[C@@H](C)C(=O)N[C@@H](C)C(=O)N[C@@H](CC(C)C)C(=O)N[C@@H](CC(N)=O)C(=O)N[C@@H](CCCNC(=N)N)C(=O)N[C@@H](CC(C)C)C(=O)N[C@@H](CC(C)C)C(=O)N[C@@H](CC(C)C)C(=O)N[C@@H](CCC(=O)O)C(=O)N[C@@H](CCC(=O)O)C(=O)N[C@@H](C)C(N)=O [AHC (9-41)],time for which the decrease in plasma ACTH is statistically significant,spontaneous ACTH release,2 h
same,dose level at which inhibition of CRF-induced ACTH secretion is significant,[1],0.09 µmol
